Molecules are shown by their SMILES.

We go through 2 molecules from ChEMBL document CHEMBL1781926, “Synthesis of 1-naphtylpiperazine derivatives as serotoninergic ligands and their evaluation as antiproliferative agents” (Eur J Med Chem, 2011).

This assay relates to PC-3. The assay can be described thus: Antiproliferative activity against human PC3 cells assessed as growth inhibition after 96 hrs by SRB assay. In kind it is functional, cell-based. On the technique in general: Sulforhodamine B stains cellular protein and so reports cell mass.

Consider `N#C/N=C(\NCCCN1CCN(c2cccc3ccccc23)CC1)c1ccccn1`, for which the “growth inhibition (GI)” value is “Dose-dependent effect”. Take `O=c1c2ccccc2nnn1OCCCN1CCN(c2cccc3ccccc23)CC1`: the “growth inhibition (GI)” value was “Dose-dependent effect”.
